Among the data in ChEMBL document CHEMBL4396893, “The chemical biology of apoptosis: Revisited after 17 years” (Eur J Med Chem, 2019) are Ki values, retold here.

By UniProt entry, the sequences of proteins in these tests, tags left out.
UniProt P10415, whole entry: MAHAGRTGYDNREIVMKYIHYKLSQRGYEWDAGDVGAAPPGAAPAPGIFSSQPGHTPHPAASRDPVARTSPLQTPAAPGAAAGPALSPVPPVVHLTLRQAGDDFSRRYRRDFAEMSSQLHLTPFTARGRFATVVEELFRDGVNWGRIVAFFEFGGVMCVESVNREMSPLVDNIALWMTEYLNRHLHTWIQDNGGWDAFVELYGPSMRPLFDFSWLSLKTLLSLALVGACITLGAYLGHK

The target in this assay is Apoptosis regulator Bcl-2 (Homo sapiens, UniProt P10415). Kind of assay: Inhibition of Flu-Bax peptide binding to Bcl2 (unknown origin) by time-resolved fluorescence resonance energy transfer assay.

Broadly, the Ki is the equilibrium dissociation constant of an inhibitor or competing ligand from its target. For `CC1(C)CCC(c2ccc(Cl)cc2)=C(CN2CCN(c3ccc(C(=O)NS(=O)(=O)c4ccc(N[C@H](CCN5CCOCC5)CSc5ccccc5)c(S(=O)(=O)C(F)(F)F)c4)cc3)CC2)C1` [NAVITOCLAX], the Ki was < 1 nM.
